# scFv variants of Ab-95 (light chain) against a SARS-CoV-2 spike peptide

The measurements come from Engelhart et al. 2022 (doi:10.1038/s41597-022-01779-4) through the FLAb antibody collection.

Target: peptide PDVDLGDISGINAS, taken from heptad repeat 2 (HR2) of SARS-CoV-2 spike.

Parent: Ab-95, a human scFv built as VH, a (GGGGS)3 linker, VL. Only the CDRs of the light chain vary.
VH: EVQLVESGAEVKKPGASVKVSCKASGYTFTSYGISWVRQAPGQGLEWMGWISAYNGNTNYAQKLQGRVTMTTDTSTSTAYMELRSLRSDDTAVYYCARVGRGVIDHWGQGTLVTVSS
VL: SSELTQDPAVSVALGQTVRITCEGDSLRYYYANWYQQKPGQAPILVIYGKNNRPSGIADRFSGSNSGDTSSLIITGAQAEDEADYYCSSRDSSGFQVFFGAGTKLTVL

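The parent was found by panning a naive human phage display library on the peptide. The library (AAYL52) carries one to three amino acid substitutions per variant, with no insertions or deletions. In AlphaSeq, yeast of one mating type display the scFv and yeast of the other type display the target. Pairs that bind mate more often; barcode pairs of the diploids are counted by sequencing. Read counts were normalised to the haploid input and turned into Kd by a linear fit to BCL2-family pairs of known affinity, for each replicate. The assay was run in three technical replicates.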

Variants are written as CDR1, CDR2 and CDR3 of the light chain (limits as in the source). Parent: EGDSLRYYYAN, GKNNRPS, SSRDSSGFQVF. All variants listed here change D91 of the VL, counted from its first residue. Values are apparent Kd, the geometric mean of the replicates that gave a signal; lower means stronger binding. Where no diploid with the target was found in any replicate, the entry reads "nd": below detection, most likely a poor binder, though not proof of it. Parent in this assay: reference entry 200 nM, copy in this library 180 nM. Nonspecific signal, from three strains lacking the peptide, appeared in 28% of pairings of library AAYL52, centred on 8.2 µM (5% of these signals below 800 nM); values are not corrected for it.

For GGDSLRYYYAN / GKNNRPS / SSRWSSGFQTF, the assay gave 7.7 µM (1 of 3 replicates).
For GGDSLRYYYAN / GKNNRPS / SSRWSSGFEVF, the assay gave 6.2 µM (1 of 3 replicates).
For EGDSLRYYYAN / GKNNRPS / SSRVYSGFQVF, the assay gave 50 nM (3 of 3 replicates).
For EGDSLRYYYAN / GKNNRPS / SRRLSSGFQVS, the assay gave 6.0 µM (1 of 3 replicates).
For EGDSLRYYYAN / GKNNKPS / SSRYSSGCQVF, the assay gave 3.1 µM (3 of 3 replicates).
For EGDSLRYCYAN / GKNNRPS / SSRPSSGFQVF, the assay gave 26 µM (3 of 3 replicates).
For EGDSLRYYYAN / GKNMRPS / SSRHSSGFQVF, the assay gave 4.3 µM (2 of 3 replicates).
For EGSSLRYYYIN / GKNNRPS / SSRPSSGFQVF, the assay gave 77 µM (1 of 3 replicates).
For EGDSLRLYYAH / GKNNRPS / SSRNSSGFQVF, the assay gave 7.3 µM (3 of 3 replicates).
For EGTSLRYYYAN / GKNNRPS / SSRYSSGFQVF, the assay gave 280 nM (3 of 3 replicates).
For EGDSLRYYYAN / GKVNRPS / SSRISSGFQVN, the assay gave 260 µM (1 of 3 replicates).
For EPDSLRYYYFN / GKNNRPS / SSRASSGFQVF, the assay gave 4.5 µM (2 of 3 replicates).
For EGDSLRYYYAN / GKNNWPS / SSRASSGFQVF, the assay gave nd (0 of 3 replicates).
For EGDSLRYYYAN / GKNNRPS / SEDFSSGFQVF, the assay gave nd (0 of 3 replicates).
For EGDSLRYYYAN / GKNNRPG / SSRQSSGFQVH, the assay gave 3.4 µM (1 of 3 replicates).
For EGDSLMYYYAN / GKNNRPN / SSRFSSGFQVF, the assay gave 33 µM (1 of 3 replicates).
For EGDSRRYYYAN / GKNNRPS / SSRVSSGHQVF, the assay gave 850 µM (1 of 3 replicates).
For EGDSLRYYYAN / GKNNRPS / SVRESSGFQVF, the assay gave nd (0 of 3 replicates).
For EGDSLRYYYWN / GKPNRPS / SSRGSSGFQVF, the assay gave 15 µM (1 of 3 replicates).
For EGDSLRYYFMN / GKNNRPS / SSRVSSGFQVF, the assay gave 8.5 µM (1 of 3 replicates).
For EYDSLRYYYAR / GKNNRPS / SSRTSSGFQVF, the assay gave 6.7 µM (3 of 3 replicates).
For EGDSLRYYYAN / GKNNRPS / SERSSSGFQVF, the assay gave 20 µM (3 of 3 replicates).
For EGDSLRYYYAN / GKNNRPS / SSRELSGFQVF, the assay gave 9.4 µM (1 of 3 replicates).
For EGDQLRYYYAN / GKNNRPS / SSRKSMGFQVF, the assay gave 68 µM (1 of 3 replicates).
For EGDSLRYYYAN / GKNNRPS / SSRISSHFQVF, the assay gave 150 nM (3 of 3 replicates).
For EGDSLRYYYAN / GKNNRPS / SSRTSSGNQVF, the assay gave 4.2 µM (2 of 3 replicates).
For EGDSFRYYYAN / GKNNRPS / SSCISSGFQVF, the assay gave nd (0 of 3 replicates).
For EGDSLRYKYAN / GKVNRPS / SSRRSSGFQVF, the assay gave 17 µM (3 of 3 replicates).
For EGDSLRYYRAN / GKNNRPS / SSRHSSGFLVF, the assay gave 4.1 µM (3 of 3 replicates).
For EADSLRYYYAN / GKNNRYS / SSRISSGFQVF, the assay gave 8.9 µM (3 of 3 replicates).
For EMDSLRYYYAN / GKYNRPS / SSRHSSGFQVF, the assay gave 330 µM (1 of 3 replicates).
For EGDSLGYYYAN / GKNNRPM / SSRPSSGFQVF, the assay gave 16 µM (2 of 3 replicates).
For EGDSLRYYGAN / GKNNRPS / SSRFSSGFQSF, the assay gave 200 nM (3 of 3 replicates).
For EGDSLRYYYAN / GKEERPS / SSRWSSGFQVF, the assay gave 270 nM (3 of 3 replicates).
For EGDSLRYYYHN / GKNNRPS / SSRHSFGFQVF, the assay gave 16 µM (1 of 3 replicates).
For EGDSLRYYYAS / GHNNRPS / SSRISSGFQVF, the assay gave nd (0 of 3 replicates).
For EGDSLSYYYAN / GKNNRPS / SDRMSSGFQVF, the assay gave 2.5 µM (2 of 3 replicates).
For EGDSLRYYYAN / GKTNRGS / SSRGSSGFQVF, the assay gave 9.8 µM (1 of 3 replicates).
For EGDSGRYYYAN / GKNNRPS / SSRLESGFQVF, the assay gave 86 µM (1 of 3 replicates).

Extract of 4 entries:

EGDSLRYYYAN / GKNNRPS / SERSSSGFQVF: 20 µM (3 of 3 replicates).
EGDSLRYYYAN / GKNNRPS / SSRELSGFQVF: 9.4 µM (1 of 3 replicates).
EGDSLRYCYAN / GKNNRPS / SSRPSSGFQVF: 26 µM (3 of 3 replicates).
EGDSLRYYYAN / GKNMRPS / SSRHSSGFQVF: 4.3 µM (2 of 3 replicates).